pKi: −log10 of the molar value.
Experiments:
D(2) dopamine receptor [1] = biological target: D(2) dopamine receptor (Homo sapiens, UniProt P14416); assay: Affinity towards human Dopamine receptor D2 expressed in CHO cells using [3H]spiperone; format: cell-based
D(2) dopamine receptor [2] = biological target: T1, D(2) dopamine receptor (Rattus norvegicus, UniProt P61169)
D(2) dopamine receptor [3] = biological target: T1, D(2) dopamine receptor; remark: listed apart in the source

Sequences of proteins named here, by UniProt entry; tags and fusion partners are left off.
UniProt P14416, whole entry: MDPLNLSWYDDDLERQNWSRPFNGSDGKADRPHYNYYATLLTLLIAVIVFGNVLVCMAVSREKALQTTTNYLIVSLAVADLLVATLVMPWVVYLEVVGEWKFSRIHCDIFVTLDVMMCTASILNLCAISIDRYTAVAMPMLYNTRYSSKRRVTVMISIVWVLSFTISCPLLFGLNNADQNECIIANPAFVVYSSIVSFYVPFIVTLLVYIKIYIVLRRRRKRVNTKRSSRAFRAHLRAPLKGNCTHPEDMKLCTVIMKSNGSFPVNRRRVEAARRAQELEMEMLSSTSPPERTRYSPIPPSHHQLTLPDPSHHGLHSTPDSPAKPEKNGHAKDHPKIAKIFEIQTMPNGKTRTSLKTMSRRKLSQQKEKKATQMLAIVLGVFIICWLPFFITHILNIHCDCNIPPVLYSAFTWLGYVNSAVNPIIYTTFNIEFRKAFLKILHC
UniProt P61169, whole entry: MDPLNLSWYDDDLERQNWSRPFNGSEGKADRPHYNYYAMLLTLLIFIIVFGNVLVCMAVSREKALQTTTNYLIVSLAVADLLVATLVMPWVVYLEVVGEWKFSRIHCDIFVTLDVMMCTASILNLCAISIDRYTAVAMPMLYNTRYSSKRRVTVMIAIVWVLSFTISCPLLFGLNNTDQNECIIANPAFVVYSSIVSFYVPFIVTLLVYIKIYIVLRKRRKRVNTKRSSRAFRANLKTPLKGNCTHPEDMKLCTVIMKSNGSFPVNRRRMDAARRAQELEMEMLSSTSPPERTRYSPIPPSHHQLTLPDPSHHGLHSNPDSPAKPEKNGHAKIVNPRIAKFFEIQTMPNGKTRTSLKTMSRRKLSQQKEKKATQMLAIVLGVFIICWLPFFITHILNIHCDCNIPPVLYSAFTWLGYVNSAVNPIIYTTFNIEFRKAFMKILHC

pKi (D(2) dopamine receptor [1]): 7.06
pKi (D(2) dopamine receptor [2]): 8.38
pKi (D(2) dopamine receptor [3]): 7.34
Structure (SMILES): O=c1[nH]c2cccc(N3CCN(Cc4ccccc4)CC3)c2[nH]1
